Sequences of proteins named here, by UniProt entry; tags and fusion partners are left off. Residues count along the entry.
UniProt P53350, 367-603 limits assumed: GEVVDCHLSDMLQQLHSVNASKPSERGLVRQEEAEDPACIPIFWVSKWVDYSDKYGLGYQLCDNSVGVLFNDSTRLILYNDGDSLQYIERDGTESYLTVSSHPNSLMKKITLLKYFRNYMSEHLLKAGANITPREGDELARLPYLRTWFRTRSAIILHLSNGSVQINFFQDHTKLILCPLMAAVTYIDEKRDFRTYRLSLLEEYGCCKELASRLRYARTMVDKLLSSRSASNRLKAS

In patent US20190269784A1, “Selective Inhibitors of the Polo-Like Kinase 1 Polo-Box Domain” (UNIVERSITY OF SOUTH CAROLINA, priority 2018, published 2019):

Target: PLK1 PBD (Homo sapiens, UniProt P53350)
Assay: Fluorescence polarization competitive binding assay, PLK1 PBD
Description: According to the assay, binding of a fluorescent tracer peptide to a protein increased polarization of the emitted fluorescence. […] The ability of test molecules to bind to the PBD was quantitated by a reduction in mP values that occurred as the tracer was displaced from the PBD, and plotted to calculate as an IC50 value.
The affinities of the peptides for PLK1 and PLK3 were measured by plotting the loss of polarization against increasing concentration of competitor peptide through use of an optimized assay and selectivity determination.

CC(=O)N1CCC[C@H]1C(=O)N[C@@H](CC(C)C)C(=O)N[C@@H](Cc1c[nH]cn1)C(=O)N[C@@H](CO)C(=O)N[C@H](C(=O)N[C@@H](C)C(=O)O)[C@@H](C)OP(=O)(O)O [SEQ ID NO: 6, Ac-PLHS[pT]A] (Ac-PLHS[pT]A-OH; C-terminus assumed)
fold reduction of PLK1 PBD binding relative to parent compound: 7 fold
Selectivity Index ((IC50 PLK3 PBD/IC50 PLK1 PBD)×5, PLK1 over PLK3): >6500

Square brackets hold non-standard residues; d marks the D form. Peptide text beside a SMILES is read from it. pT = C[C@@H](OP(=O)(O)O)[C@H](N)C(=O)O
